Test results taken from US20250091990A1, “DEUTERATED ORGANIC COMPOUNDS AND USES THEREOF” (ENGRAIL THERAPEUTICS, INC., priority 2022, published 2025).

Tested on: Adult male Wistar rats
Assay: Conditioned Avoidance Response test
Assay type: in vivo, rat
Details: 0.5 mg/kg i.p., 30 minutes prior to test
Text: Example 8—Conditioned Avoidance Response Adult male Wistar rats are used.

Structure (SMILES): Cc1nc2n(c(=O)c1CCN1CCC(c3noc4cc(F)ccc34)CC1)CCCC2 [risperidone]
- Escape failures compared to vehicle: increases escape failures
